## Water solubility values, as collected for the OPERA models

From the experimental data distributed with OPERA 2.9.

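The numbers are reported measurements, compiled and curated for the OPERA QSAR suite. A listed value is a point estimate from one report or more. Method, purity and exact conditions of the single measurements are not given. The measured form (salt, isomer or mixture) is not always the one drawn. Some upstream entries may be estimates or bounds without being marked so.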

Water solubility is log10 of mol/L, nominally at 25 °C; higher is more soluble.

SMILES | log S (log10 mol/L)
COC1CC2CC1C1CC(C=O)CC21 (centres undefined) | -1.651
CCCCCCC(CCCCCCCCCCC(=O)OCC(COC(=O)CCCCCCCCCCC(CCCCCC)OC(C)=O)OC(=O)CCCCCCCCCCC(CCCCCC)OC(C)=O)OC(C)=O (centres undefined) | -8.986
Nc1c(CC(=O)O)cccc1C(=O)c1ccc(Br)cc1 | -4.424
NC(=O)c1cccc([N+](=O)[O-])c1 | -1.46
COc1ccc(-c2ccc3cc(C(=O)O)ccc3c2)cc1C12CC3CC(CC(C3)C1)C2 | -8.012
CCCCCCCCCCC=O | -3.152
CCCCC(C#N)c1ccccc1 (centres undefined) | -3.662
CC(=O)OCOC(=O)c1ccccc1OC(C)=O | -2.016
CCOC(=O)/C(=C/c1ccc2c(c1)OCO2)N=CO | -2.139
CCCC(=O)OCn1cnc2c(cnn2COC(=O)CCC)c1=O | -3.828
CN1C(=O)NCc2c1ncn2C | -1.34
CC(=O)C(/N=N/c1ccc(C)cc1[N+](=O)[O-])C(=O)Nc1ccc(Cl)cc1 (stereo partly drawn) | -7.605
NS(=O)(=O)CCN1C(=O)c2ccccc2C1=O | -3.129
O=S(=O)(O)c1ccc(N=Nc2ccc(O)cc2O)cc1 | -2.168
O=C(O)COC(=O)c1cc(Oc2ccc(C(F)(F)F)cc2Cl)ccc1[N+](=O)[O-] | -5.83
CC[C@]12CC[C@@H]3C4=C(CC[C@H]3[C@@H]1CC[C@@H]2O)CC(OC)=CC4 | -5.336
Clc1c(Cl)c(Cl)c(Oc2ccccc2)c(Cl)c1Cl | -7.94
CCCCCCCCCCCCCC[Si](C)(O[Si](C)(C)C)O[Si](C)(C)C | -6.777
CC(CC(C)(C)C)CP(=O)(O)CC(C)CC(C)(C)C (centres undefined) | -4.366
C=C(C)C(=O)OCC1CCC2OC2C1 (centres undefined) | -1.768
Nc1c(Cl)cc(C(F)(F)F)cc1Cl | -3.592
CCCCC(CC)COC(C)=O (centres undefined) | -4.645
NC1=NS(=O)(=O)c2ccccc21 | -2.454
CCCCCCCCN=c1cc[nH]cc1 | -4.207
C=CC(=O)OCc1ccccc1 | -2.444
CCCCC(CC)CN1C(=O)C2C3C=CC(C3)C2C1=O (centres undefined) | -4.264
COc1ccc(C(=O)O)c([N+](=O)[O-])c1OC | -2.356
CCCCCCCCC=CCCCCCCCC1=NCCN1CCO | -3.846
CC(C)(C#N)CC1=CCC2CC1C2(C)C (centres undefined) | -4.385
Nc1ccc(S(=O)(=O)NC2=CC(=O)c3ccccc3C2=O)cc1 | -3.863
O=C1NC(=S)S/C1=C\c1ccc(O)c(O)c1 | -3.343
OC(CCCN1CCCCC1)(c1ccccc1)c1ccccc1 | -4.722
CCCCCCCCCCCCCCCC(=O)N1C(=O)CCC1C(=O)[O-].[Na+] (centres undefined) | -4.022
CC(=O)Nc1cc(S(=O)(=O)O)cc(N)c1O | -2.09

Repeated from above, the 5 entries with the highest log S:

SMILES	log S (log10 mol/L)
CN1C(=O)NCc2c1ncn2C	-1.34
NC(=O)c1cccc([N+](=O)[O-])c1	-1.46
COC1CC2CC1C1CC(C=O)CC21 (centres undefined)	-1.651
C=C(C)C(=O)OCC1CCC2OC2C1 (centres undefined)	-1.768
CC(=O)OCOC(=O)c1ccccc1OC(C)=O	-2.016